Conditions: traditional octanol water partition coefficient determination

With cubyl-warfarin [compound 7] as the substance, how does the “log P” value read?
The value was 4.62.

From publication PMC6436534 (Chemistry (Weinheim an der Bergstrasse, Germany), 2019)
